Source: ChEMBL document CHEMBL6177919, “Development, biological evaluation, and molecular modelling of some benzene-sulfonamide derivatives as protein tyrosine phosphatase-1B inhibitors for managing diabetes mellitus and associated metabolic disorders” (RSC Med Chem, 2025)
Activity calls are given as the source filed them.

Assays:
Type in all cases: functional, organism-based
Rattus norvegicus [1] = test: Antidiabetic activity in high fat diet/streptozotocin induced diabetic male Albino rat model assessed as decrease in ALT level at 2 mg/kg, po administered for 4 weeks by colorimetric assay
Rattus norvegicus [2] = test: Antidiabetic activity in high fat diet/streptozotocin induced diabetic male Albino rat model assessed as decrease in AST level at 2 mg/kg, po administered for 4 weeks by colorimetric assay
Rattus norvegicus [3] = test: Antidiabetic activity in high fat diet/streptozotocin induced diabetic male Albino rat model assessed as decrease in creatinine level at 2 mg/kg, po administered for 4 weeks by colorimetric assay
Rattus norvegicus [4] = test: Antidiabetic activity in high fat diet/streptozotocin induced diabetic male Albino rat model assessed as decrease in urea level at 2 mg/kg, po administered for 4 weeks by colorimetric assay
Rattus norvegicus [5] = test: Antiinflammatory activity in high fat diet/streptozotocin induced diabetic male Albino rat model assessed as reduction in NF-kappaB level in serum at 2 mg/kg, po using self assembled nanoparticle as source of compound administered for 4 weeks by ELISA analysis
Rattus norvegicus [6] = test: Antiinflammatory activity in high fat diet/streptozotocin induced diabetic male Albino rat model assessed as reduction in NF-kappaB level in serum at 2 mg/kg, po administered for 4 weeks by ELISA analysis
Rattus norvegicus [7] = test: Antiinflammatory activity in high fat diet/streptozotocin induced diabetic male Albino rat model assessed as reduction in TNF-alpha level in serum at 2 mg/kg, po administered for 4 weeks by ELISA analysis
Rattus norvegicus [8] = test: Antiinflammatory activity in high fat diet/streptozotocin induced diabetic male Albino rat model assessed as reduction in IL-1beta level in serum at 2 mg/kg, po administered for 4 weeks by ELISA analysis
Rattus norvegicus [9] = test: Antiinflammatory activity in high fat diet/streptozotocin induced diabetic male Albino rat model assessed as reduction in IL-6 level in serum at 2 mg/kg, po administered for 4 weeks by ELISA analysis
Rattus norvegicus [10] = test: Antidiabetic activity in high fat diet/streptozotocin induced diabetic male Albino rat model assessed as decrease in ALT level at 2 mg/kg, po using self assembled nanoparticle as source of compound administered for 4 weeks by colorimetric assay
Rattus norvegicus [11] = test: Antidiabetic activity in high fat diet/streptozotocin induced diabetic male Albino rat model assessed as decrease in AST level at 2 mg/kg, po using self assembled nanoparticle as source of compound administered for 4 weeks by colorimetric assay
Rattus norvegicus [12] = test: Antidiabetic activity in high fat diet/streptozotocin induced diabetic male Albino rat model assessed as decrease in urea level at 2 mg/kg, po using self assembled nanoparticle as source of compound administered for 4 weeks by colorimetric assay
Rattus norvegicus [13] = test: Antidiabetic activity in high fat diet/streptozotocin induced diabetic male Albino rat model assessed as decrease in CAT level in serum at 2 mg/kg, po using self assembled nanoparticle as source of compound administered for 4 weeks by ELISA analysis
Rattus norvegicus [14] = test: Antidiabetic activity in high fat diet/streptozotocin induced diabetic male Albino rat model assessed as decrease in CAT level in serum at 2 mg/kg, po administered for 4 weeks by ELISA analysis
Rattus norvegicus [15] = test: Antidiabetic activity in high fat diet/streptozotocin induced diabetic male Albino rat model assessed as effect on GSH level in serum at 2 mg/kg, po administered for 4 weeks by ELISA analysis
Rattus norvegicus [16] = test: Antidiabetic activity in high fat diet/streptozotocin induced diabetic male Albino rat model assessed as effect on GSH level at 2 mg/kg, po using self assembled nanoparticle as source of compound administered for 4 weeks by ELISA analysis
Rattus norvegicus [17] = test: Antidiabetic activity in high fat diet/streptozotocin induced diabetic male Albino rat model assessed as effect on SOD level in serum at 2 mg/kg, po administered for 4 weeks by ELISA analysis
Rattus norvegicus [18] = test: Antidiabetic activity in high fat diet/streptozotocin induced diabetic male Albino rat model assessed as effect on SOD level in serum at 2 mg/kg, po using self assembled nanoparticle as source of compound administered for 4 weeks by ELISA analysis
Rattus norvegicus [19] = test: Antidiabetic activity in high fat diet/streptozotocin induced diabetic male Albino rat model assessed as effect on MDA level in serum at 2 mg/kg, po administered for 4 weeks by ELISA analysis
Rattus norvegicus [20] = test: Antidiabetic activity in high fat diet/streptozotocin induced diabetic male Albino rat model assessed as effect on MDA level in serum at 2 mg/kg, po using self assembled nanoparticle as source of compound administered for 4 weeks by ELISA analysis
Rattus norvegicus [21] = test: Antiinflammatory activity in high fat diet/streptozotocin induced diabetic male Albino rat model assessed as reduction in TNF-alpha level in serum at 2 mg/kg, po using self assembled nanoparticle as source of compound administered for 4 weeks by ELISA analysis
Rattus norvegicus [22] = test: Antiinflammatory activity in high fat diet/streptozotocin induced diabetic male Albino rat model assessed as reduction in IL-1beta level in serum at 2 mg/kg, po using self assembled nanoparticle as source of compound administered for 4 weeks by ELISA analysis
Rattus norvegicus [23] = test: Antiinflammatory activity in high fat diet/streptozotocin induced diabetic male Albino rat model assessed as reduction in IL-6 level in serum at 2 mg/kg, po using self assembled nanoparticle as source of compound administered for 4 weeks by ELISA analysis
Rattus norvegicus [24] = test: Antiinflammatory activity in high fat diet/streptozotocin induced diabetic male Albino rat model assessed as reduction in leptin level in adipose tissue at 2 mg/kg, po using self assembled nanoparticle as source of compound administered for 4 weeks by ELISA analysis
Rattus norvegicus [25] = test: Antiinflammatory activity in high fat diet/streptozotocin induced diabetic male Albino rat model assessed as reduction in leptin level in adipose tissue at 2 mg/kg, po administered for 4 weeks by ELISA analysis
Rattus norvegicus [26] = test: Antiinflammatory activity in high fat diet/streptozotocin induced diabetic male Albino rat model assessed as reduction in adiponectin level in adipose tissue at 2 mg/kg, po using self assembled nanoparticle as source of compound administered for 4 weeks by ELISA analysis
Rattus norvegicus [27] = test: Antiinflammatory activity in high fat diet/streptozotocin induced diabetic male Albino rat model assessed as reduction in adiponectin level in adipose tissue at 2 mg/kg, po administered for 4 weeks by ELISA analysis
Rattus norvegicus [28] = test: Antiinflammatory activity in high fat diet/streptozotocin induced diabetic male Albino rat model assessed as reduction in leptin expression in adipose tissue at 2 mg/kg, po administered for 4 weeks
Rattus norvegicus [29] = test: Antiinflammatory activity in high fat diet/streptozotocin induced diabetic male Albino rat model assessed as reduction in adiponectin expression in adipose tissue at 2 mg/kg, po administered for 4 weeks
Rattus norvegicus [30] = test: Antiinflammatory activity in high fat diet/streptozotocin induced diabetic male Albino rat model assessed as reduction in leptin expression in adipose tissue at 2 mg/kg, po using self assembled nanoparticle as source of compound administered for 4 weeks
Rattus norvegicus [31] = test: Antiinflammatory activity in high fat diet/streptozotocin induced diabetic male Albino rat model assessed as reduction in adiponectin expression in adipose tissue at 2 mg/kg, po using self assembled nanoparticle as source of compound administered for 4 weeks
Rattus norvegicus [32] = test: Antidiabetic activity in high fat diet/streptozotocin induced diabetic male Albino rat model assessed as restoration of renal cortical architecture in kidney at 2 mg/kg, po using self assembled nanoparticle as source of compound administered for 4 weeks by microscopic analysis
Rattus norvegicus [33] = test: Antidiabetic activity in high fat diet/streptozotocin induced diabetic male Albino rat model assessed as restoration of renal cortical architecture in kidney at 2 mg/kg, po administered for 4 weeks by microscopic analysis
Rattus norvegicus [34] = test: Antidiabetic activity in high fat diet/streptozotocin induced diabetic male Albino rat model assessed as decrease in kidney damage score at 2 mg/kg, po using self assembled nanoparticle as source of compound administered for 4 weeks by microscopic analysis
Rattus norvegicus [35] = test: Antidiabetic activity in high fat diet/streptozotocin induced diabetic male Albino rat model assessed as decrease in kidney damage score at 2 mg/kg, po administered for 4 weeks by microscopic analysis
Rattus norvegicus [36] = test: Antidiabetic activity in high fat diet/streptozotocin induced diabetic male Albino rat model assessed as decrease in adipocyte diameter at 2 mg/kg, po using self assembled nanoparticle as source of compound administered for 4 weeks
Rattus norvegicus [37] = test: Antidiabetic activity in high fat diet/streptozotocin induced diabetic male Albino rat model assessed as decrease in adipocyte diameter at 2 mg/kg, po administered for 4 weeks

Measured: Activity

N#CC1=CC(=O)N(c2ccc(S(=O)(=O)Nc3ncccn3)cc2)C1=O
active: Rattus norvegicus [1] | Rattus norvegicus [2] | Rattus norvegicus [3] | Rattus norvegicus [4] | Rattus norvegicus [5] | Rattus norvegicus [6] | Rattus norvegicus [7] | Rattus norvegicus [8] | Rattus norvegicus [9]

O=S(=O)(Nc1ncccn1)c1ccc(NCc2nc3ccccc3[nH]2)cc1
active: Rattus norvegicus [1] | Rattus norvegicus [2] | Rattus norvegicus [3] | Rattus norvegicus [4] | Rattus norvegicus [5] | Rattus norvegicus [6] | Rattus norvegicus [7] | Rattus norvegicus [8] | Rattus norvegicus [9]

CN1CCN(CC(=O)Nc2ccc(S(=O)(=O)Nc3ncccn3)cc2)CC1
active: all assays above

CCN1C(=O)CS/C1=N\c1ccc(S(=O)(=O)Nc2ncccn2)cc1
active: Rattus norvegicus [1] | Rattus norvegicus [2] | Rattus norvegicus [3] | Rattus norvegicus [4] | Rattus norvegicus [5] | Rattus norvegicus [6] | Rattus norvegicus [7] | Rattus norvegicus [8] | Rattus norvegicus [9]
